Source: patent US20140371160A1 (ALTEOGEN, published 2014)

Experiments:
[1] = biological target: T1, Porcine pancreatic elastase (Calbiochem, Cat. 324682) (porcine, UniProt P00772 27-266); assay: equilibrium constant Ka=[EI]/[E]f/[I]f from elastase activity with AAA-pNA substrate
T1 construct: Commercial enzyme; also called PPE
T1 sequence (looked up): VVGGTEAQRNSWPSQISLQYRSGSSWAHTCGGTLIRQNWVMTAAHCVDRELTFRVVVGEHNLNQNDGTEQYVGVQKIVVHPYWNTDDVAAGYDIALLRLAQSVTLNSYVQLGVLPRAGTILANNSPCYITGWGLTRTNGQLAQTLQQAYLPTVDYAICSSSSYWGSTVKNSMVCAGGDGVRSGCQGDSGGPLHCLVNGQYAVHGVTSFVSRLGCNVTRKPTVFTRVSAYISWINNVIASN
Procedure: (§1) Porcine pancreatic elastase (Calbiochem, Cat. 324682) and AAA-pNA (N-Succinyl-Ala-Ala-Ala-p-nitroanilide, Sigma, S4760) were used as an enzyme and a substrate, respectively, to measure the rate constants of the alpha-1 antitrypsin and variants thereof. More particularly, the porcine pancreatic elastase and the alpha-1 antitrypsin and variants thereof were mixed at the same molar ratio, and reacted at 25° C. for 120 seconds, 300 seconds, and 600 seconds. Thereafter, the AAA-pNA was added to the resulting reaction mixture, and measured for kinetics for 5 minutes at intervals of one minute. In the final reaction, the concentrations of the porcine pancreatic elastase and the alpha-1 antitrypsin and variants thereof were 20 nM, and the concentration of the AAA-pNA was 1 mM.
Also, the equilibrium constant of the alpha-1 antitrypsin and variants thereof was calculated using the following equation.

[2] = biological target: T1, Porcine pancreatic elastase …; assay: remaining elastase activity after 120, 300 and 600 s at equal molar ratio (20 nM each), AAA-pNA substrate, 25 C
Procedure: as §1
Because the reaction of the porcine pancreatic elastase with the alpha-1 antitrypsin and variants thereof was an irreversible secondary reaction (Levenspiel O. Chemical reaction engineering, 2nd edition. 1972, Wiley, New York), the rate constant was calculated by the equation: 1/R=kaCE0t+1 [R=Remaining PPE activity, ka=Rate constant (M⁻¹ s⁻¹), CE0=Initial concentration of AAT (M), and t=Reaction time (seconds)]. The association rate constant (ka) was calculated using the activities of porcine pancreatic elastase remaining at each reaction time.

Ka [1]: 3.04e+09 M⁻¹
kon [2]: 600000 M⁻¹ s⁻¹
B1: Alpha-1 antitrypsin variant AT9N (glutamine at the 9th position substituted with asparagine), expressed in CHO-K1 cells (other)
chain: EDPQGDAANKTDTSHHDQDHPTFNKITPNLAEFAFSLYRQLAHQSNSTNIFFSPVSIATAFAMLSLGTKADTHDEILEGLNFNLTEIPEAQIHEGFQELLRTLNQPDSQLQLTTGNGLFLSEGLKLVDKFLEDVKKLYHSEAFTVNFGDTEEAKKQINDYVEKGTQGKIVDLVKELDRDTVFALVNYIFFKGKWERPFEVKDTEEEDFHVDQVTTVKVPMMKRLGMFNIQHCKKLSSWVLLMKYLGNATAIFFLPDEGKLQHLENELTHDIITKFLENEDRRSASLHLPKLSITGTYDLKSVLGQLGITKVFSNGADLSGVTEEAPLKLSKAVHKAVLTIDEKGTEAAGAMFLEAIPMSIPPEVKFNKPFVFLMIDQNTKSPLFMGKVVNPTQK
modifications: added N-glycosylation site at asparagine 9, besides asparagine 46, 83 and 247
notes: Written here as the M3 variant, since it is compared with T003; Positions count from the N-terminus of mature alpha-1 antitrypsin; also called Q9N
